This is an account of results in ChEMBL document CHEMBL1131217, “Conformationally defined retinoic acid analogues. 4. Potential new agents for acute promyelocytic and juvenile myelomonocytic leukemias” (J Med Chem, 1998).

Amino acid sequences for entries named in this document (tags omitted).
UniProt P11416, whole entry: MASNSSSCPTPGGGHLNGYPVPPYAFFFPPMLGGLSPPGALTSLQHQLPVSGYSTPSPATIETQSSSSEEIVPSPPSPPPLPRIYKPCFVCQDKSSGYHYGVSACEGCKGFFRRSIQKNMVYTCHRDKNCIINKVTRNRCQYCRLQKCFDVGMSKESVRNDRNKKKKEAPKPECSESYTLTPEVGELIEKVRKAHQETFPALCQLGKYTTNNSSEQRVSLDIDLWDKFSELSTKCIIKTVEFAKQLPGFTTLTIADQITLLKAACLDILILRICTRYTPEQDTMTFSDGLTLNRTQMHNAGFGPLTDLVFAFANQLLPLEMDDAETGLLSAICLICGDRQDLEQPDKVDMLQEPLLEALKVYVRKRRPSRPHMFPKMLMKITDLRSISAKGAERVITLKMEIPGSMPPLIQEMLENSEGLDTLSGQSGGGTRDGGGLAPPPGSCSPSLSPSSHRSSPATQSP
UniProt P18911, whole entry: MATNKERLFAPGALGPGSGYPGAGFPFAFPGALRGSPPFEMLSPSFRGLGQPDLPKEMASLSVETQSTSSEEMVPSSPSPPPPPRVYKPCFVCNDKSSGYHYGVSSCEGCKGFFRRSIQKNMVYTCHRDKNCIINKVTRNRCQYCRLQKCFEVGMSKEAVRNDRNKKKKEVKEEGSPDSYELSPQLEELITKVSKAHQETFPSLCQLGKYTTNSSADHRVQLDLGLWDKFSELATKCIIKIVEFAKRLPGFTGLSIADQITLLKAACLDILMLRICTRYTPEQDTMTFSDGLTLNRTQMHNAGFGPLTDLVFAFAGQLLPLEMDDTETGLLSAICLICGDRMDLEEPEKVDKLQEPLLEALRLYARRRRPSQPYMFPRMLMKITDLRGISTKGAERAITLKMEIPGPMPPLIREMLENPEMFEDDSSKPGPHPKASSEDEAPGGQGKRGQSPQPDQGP

Test [1] addresses T1, Retinoic acid receptor alpha (Mus musculus, UniProt P11416). Briefly: (§1) Transcriptional activation in CV-1 cells expressing retinoid A receptor RAR alpha. It counts as cell-based.
For test [2], the target named is T1, Retinoic acid receptor alpha. The test is described as follows: Inhibition of binding to retinoid A receptor RAR alpha.
Test [3] shares this target. The test is described as §1. It counts as cell-based. The gist of the method: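 CV-1 cells were transiently transfected with a plasmid for the relevant RAR subtype plus a (TREpal)2-tk-CAT reporter. Retinoids were tested over 1–1000 nM. CAT activity was the read-out. EC50 for half-maximal activation was obtained by Probit analysis of the dose–response curve.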
The source holds these as a separate data set.

In test [4] the target is Retinoic acid receptor gamma (Mus musculus, UniProt P18911). Briefly: Inhibition of binding to retinoid A receptor RAR gamma.

The EC50 is the concentration giving half of the maximal effect. Read a high EC50 as a less potent agent. The IC50 is the concentration that inhibits the measured activity by half. A lower IC50 goes with greater potency. In the case of `CCC1=C(C(C)C)/C(=C/C(C)=C\C=C/C(C)=C/C(=O)O)CCC1`, the EC50 in test [1] was more than 1000 nM. Besides, the IC50 in test [2] is more than 1000 nM.

Compound `CC1=C(\C=C/C(C)=C/C=C/C(C)=C/C(=O)O)C(C)(C)CCC1` yielded an EC50 in test [3] of 18 nM. For the same compound, the values for the IC50 in test [2] and in test [4] were 31 nM and 60 nM, respectively.

The compound `CC1=C(/C=C/C(C)=C/C=C/C(C)=C/C(=O)O)C(C)(C)CCC1` [TRETINOIN] yielded an EC50 in test [3] of 22 nM.
